Amino acid sequences for entries named in this document (tags omitted). Residues count along the entry.
UniProt Q02223, whole entry: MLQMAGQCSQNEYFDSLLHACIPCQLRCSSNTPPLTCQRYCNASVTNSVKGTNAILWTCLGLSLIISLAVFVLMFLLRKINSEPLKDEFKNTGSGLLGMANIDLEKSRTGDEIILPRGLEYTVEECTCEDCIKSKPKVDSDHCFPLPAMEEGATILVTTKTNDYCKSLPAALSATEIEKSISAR
UniProt Q02223, 1-54 limits assumed: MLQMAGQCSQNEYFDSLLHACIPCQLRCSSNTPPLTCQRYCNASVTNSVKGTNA

According to US20220323599A1, “ANTI-BCMA ANTIBODY CONJUGATE, COMPOSITIONS COMPRISING THE SAME, AND METHODS OF MAKING AND USING THE SAME” (CELGENE CORPORATION, priority 2019, published 2022):

Tests used:
[1] = biological target: human BCMA on cells (endogenous on multiple myeloma cell lines; stably transfected 293T-hBCMA) (human) (UniProt Q02223); experiment: flow cytometry, 293T-hBCMA cells
[2] = biological target: Recombinant human BCMA ECD protein (Acro Biosystems) (human) (UniProt Q02223); experiment: competition ELISA on coated human BCMA ECD, competitor BAFF at 1 ng/ml, Experiment No. 2
[3] = biological target: Recombinant human BCMA ECD protein (Acro Biosystems) (human) (UniProt Q02223); experiment: competition ELISA on coated human BCMA ECD, competitor APRIL at 10 ng/ml, Experiment No. 1
[4] = biological target: Recombinant human BCMA ECD protein (Acro Biosystems) (human) (UniProt Q02223); experiment: competition ELISA on coated human BCMA ECD, competitor APRIL at 10 ng/ml, Experiment No. 2

Conjugate 1: anti-BCMA antibody J6M0 conjugated to maleimido-caproyl monomethyl auristatin F (mc-MMAF), surrogate ADC for GSK2857916
Kd [1]: 7.1 nM
IC50 [2]: 7.4 nM
IC50 [3]: 6.8 nM
IC50 [4]: 8.5 nM
